{"sequences": {"note": "Amino acid sequences for entries named in this document (tags omitted).", "UniProt P46089, whole entry": "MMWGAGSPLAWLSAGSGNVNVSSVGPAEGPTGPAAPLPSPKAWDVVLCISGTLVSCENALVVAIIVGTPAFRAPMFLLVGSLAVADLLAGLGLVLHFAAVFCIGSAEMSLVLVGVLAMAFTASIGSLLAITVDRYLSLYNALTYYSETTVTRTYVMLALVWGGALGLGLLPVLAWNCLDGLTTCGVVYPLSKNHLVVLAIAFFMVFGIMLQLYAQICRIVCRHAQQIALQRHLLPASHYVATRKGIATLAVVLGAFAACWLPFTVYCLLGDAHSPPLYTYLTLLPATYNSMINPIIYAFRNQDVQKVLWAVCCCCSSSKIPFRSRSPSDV"}, "source": "patent US20260042755A1", "about": "“GPR6 INVERSE AGONISTS” (MapLight Therapeutics, Inc., priority 2022, published 2026)", "key": {"GPR3": {"target": "GPR3 (Homo sapiens, UniProt P46089)", "test": "GPR3 antagonist functional cAMP assay (LANCE Ultra cAMP TR-FRET, CHO cells stably expressing GPR3)", "settings": "read-out: GPR3 IC50", "experimental": "(§1) Example 56. GPR6 and GPR3 Antagonist Functional cAMP Assay\n(§2) CHO cells stably expressing GPR6 or GPR3 receptors were dissociated from cell culture flasks and incubated for 2 h at 37° C. in a 10 cm dish in a humidified incubator. Cells were dissociated, counted to have 1e6 cells/mL (4.5e6 cells needed/384-well plate), washed once in starved media, than in D-PBS and finally suspended in assay buffer (Krebs-Ringer Bicarbonate Buffer with 1800 mg/L glucose, without calcium chloride and sodium bicarbonate (Sigma) in the presence of 0.1% BSA and 150 μM of Ro 20-1724 Phosphodiesterase inhibitor).\n(§3) Cells in suspension from above were plated in 384-well white Optiplate (PerkinElmer) at 10,000 cells/well/10 μl, briefly centrifuged prior direct addition of compounds ([…]) in 10 mM DMSO using a Tecan D300e Digital Dispenser, final DMSO in each well was normalized to 0.1%. […]\n(§4) To measure cAMP levels, LANCE® Ultra cAMP assay (Perkin Elmer), a homogeneous time-resolved fluorescence resonance energy transfer (TR-FRET) immunoassay was used following manufacturer's recommendations. Plates were shaken for 1 h at room temperature before reading on a Tecan InfiniteF200Pro multi-mode plate reader using standard FRET settings (Excitation 340 nm, Emission at 615 nm). FRET values were reported as readings obtained at 665 nm. […]"}, "GPR6": {"target": "GPR6 (Homo sapiens, UniProt P46095)", "test": "GPR6 antagonist functional cAMP assay (LANCE Ultra cAMP TR-FRET, CHO cells stably expressing GPR6)", "settings": "read-out: GPR6 IC50", "experimental": "as §1, §2, §3, §4"}}, "data": [{"smiles": "CCn1cc(-c2nc3cc(C(O)C(C)(C)O)ncc3nc2N2CCN(Cc3ccc(F)cc3F)CC2)cn1", "note": "(single isomer, unassigned)", "values": [{"measurement": "IC50", "setting": "GPR3", "result": "100 to 1000", "unit": "nM"}, {"measurement": "IC50", "setting": "GPR6", "result": "< 100", "unit": "nM"}]}]}
